pIC50: −log10 of the molar value.
Assay: Inhibition of Trypanosoma brucei NMT by scintillation proximity assay

## COc1cc(C)c(S(=O)(=O)Nc2c(C)nn(C)c2C)c(C)c1C
  pIC50: 5.72

Source: ChEMBL document CHEMBL5634069, “Exploring N-myristoyltransferase as a promising drug target against parasitic neglected tropical diseases” (Eur J Med Chem, 2023)
